{"sequences": {"note": "The chains behind the UniProt entries cited, without tags or fusion partners. Where a name states a change or a piece, a line headed by the entry shows the natural chain unless it says otherwise.", "UniProt P46063": "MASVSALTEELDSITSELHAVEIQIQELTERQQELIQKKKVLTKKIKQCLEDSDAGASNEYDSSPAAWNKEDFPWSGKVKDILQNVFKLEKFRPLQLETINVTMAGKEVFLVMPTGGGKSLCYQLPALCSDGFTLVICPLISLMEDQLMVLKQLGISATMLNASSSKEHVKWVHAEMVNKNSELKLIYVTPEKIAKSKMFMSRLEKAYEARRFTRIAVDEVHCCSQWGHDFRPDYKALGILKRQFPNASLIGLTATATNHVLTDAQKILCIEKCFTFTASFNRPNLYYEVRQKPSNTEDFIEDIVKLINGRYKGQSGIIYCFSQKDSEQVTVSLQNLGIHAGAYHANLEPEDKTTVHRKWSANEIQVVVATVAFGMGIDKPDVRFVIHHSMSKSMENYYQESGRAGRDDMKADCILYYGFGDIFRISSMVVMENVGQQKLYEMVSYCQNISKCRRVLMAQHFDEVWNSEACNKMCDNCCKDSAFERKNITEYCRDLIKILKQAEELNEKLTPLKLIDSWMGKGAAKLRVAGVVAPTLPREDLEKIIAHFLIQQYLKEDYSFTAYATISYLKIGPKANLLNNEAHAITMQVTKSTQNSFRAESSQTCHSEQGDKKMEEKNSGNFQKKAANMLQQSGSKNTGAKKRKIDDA"}, "source": "PubChem BioAssay AID2549", "about": "(National Center for Advancing Translational Sciences (NCATS), 2010)", "note": "The list shows a part of the results, in another mix than the full data. Active and inactive are the calls of the source. Calls follow the shape of the dose curve; as a rule, active = well fitted inhibition curve with a large enough effect; inconclusive = small, poorly fitted or top-dose-only effect; inactive = flat fitted curve, though single readings scatter. Potency is read from the fitted curve at half-maximal effect.", "data": [{"target": "ATP-dependent DNA helicase Q1 (Homo sapiens) (UniProt P46063)", "assay": "qHTS Assay for Inhibitors of RecQ-Like Dna Helicase 1 (RECQ1); also: nearly all actives have a fitted effect of over 30% in size", "details": "RECQ1 DNA unwinding, red fluorescence kinetic read; series mostly up to 57.3 µM; activity, negative = inhibition: at the top concentration", "from_the_text": "Survival of cells and the faithful propagation of the genome depend on elaborate mechanisms of detecting and repairing DNA damage. Treatment of advanced cancer relies on radiation therapy or chemotherapy, which kill cancer cells by causing extensive DNA damage. It is often found, that cancer cells develop resistance to therapy through enhanced activity of DNA repair functions; this has led to an increased interest in developing drugs that interfere with DNA repair, which could sensitize cancer cells to conventional therapy.\nThis validation qHTS assay pertains to human RECQ1, which is important in resolving abnormal DNA structures formed during replication or homologous recombination. Shutting down the expression of RECQ1 leads to chromosomal instability and higher radiation sensitivity in cultured cells.\nThe validation assay was a fluorescence quenching based kinetic qHTS for RECQ1 Helicase DNA unwinding. The activity was measured as ATP-dependent separation of a 20-bp DNA duplex extended by 30-nt single-stranded tails (forked duplex). The forked DNA substrate was tagged with rhodamine fluorophore (carboxytetramethyl rhodamine, TAMRA) and BHQ-2 (Black Hole Quencher 2) dark quencher. Strand separation results in an increase in the fluorescence of TAMRA (excitation 525 nm, emission 598 nm). This substrate construct operates in a red-shifted region where very few compound library members have been noted to fluoresce (PubChem AIDs 593 and 594). An additional feature of the assay is the inclusion of 2.5 ug/ml poly (dIdC), to reduce interference by compounds such as DNA intercalators, a major source of false inhibitors.\nOpher Gileadi, Structural Genomics Consortium, University of Oxford\nScreening Center PI: Austin, C.P.\nScreening Center: NIH Chemical Genomics Center [NCGC]\nThree uL of reaction buffer (25 mM Tris-HCl (pH 8.0), 5 mM NaCl, 2 mM MgCl2, 1mM DTT, 0.01% Tween- 20, and 2.5 ug/ml poly(dI-dC), including enzyme (50 nM RECQ1T1), were dispensed into a 1536-well Greiner black assay plate via solenoid-valve based nanoliter dispensers. Compounds (23 nl each in columns 5-48) and control (23 nl each in column 2 as dose-response) were transferred via a Kalypsys pintool equipped with a 1536-pin array. The plates were incubated for 15 min at room temperature, and then 1 ul of substrates (200 nM DNA and 2 mM ATP, final concentrations) was added to start the reaction. The plate was transferred into a ViewLux high-throughput CCD imager where the reaction progress was measured in a discontinuous kinetic mode (two reads spaced 2 hours apart, with intermediate room temperature incubation of the covered assay plate) by using standard red-fluorescence optics (excitation filter 525 nm, emission filter 598 nm). Enzyme-free and vehicle (DMSO) controls were included for signal normalization.", "values": [{"smiles": "CC(=O)Nc1ccc([As](=O)(O)O)c(O)c1", "activity, negative = inhibition": "inactive: -1.7%"}, {"smiles": "CC(=O)Nc1ccc(Oc2c([N+](=O)[O-])cc([N+](=O)[O-])cc2[N+](=O)[O-])cc1", "activity, negative = inhibition": "inactive: 0.631%"}, {"smiles": "C[C@@H]1C=CCP(=O)(Oc2ccccc2)O1", "note": "(some centres undefined)", "Potency": "active: 15.8 µM"}, {"smiles": "C[C@H]1OP(=O)(Oc2ccccc2)C[C@@H]2O[C@@H]21", "note": "(some centres undefined)", "activity, negative = inhibition": "inactive: -0.109%"}, {"smiles": "c1ccc(-c2nn[nH]n2)c(-c2nn[nH]n2)c1", "activity, negative = inhibition": "inactive: -5.19%"}, {"smiles": "Cc1ccc(NP(=O)(Oc2cccc(C)c2)Oc2cccc(C)c2)nc1", "activity, negative = inhibition": "inactive: -11.7%"}, {"smiles": "CCOC(=O)NC(Sc1ccccc1)C(Cl)(Cl)Cl", "note": "(centres undefined)", "activity, negative = inhibition": "inactive: -13.5%"}, {"smiles": "O=C(NC1CCS(=O)(=O)C1)NP(=S)(Oc1ccccc1)Oc1ccccc1", "note": "(centres undefined)", "activity, negative = inhibition": "inactive: -4.63%"}, {"smiles": "CCNC(=S)/N=C(\\N)N[N+](=O)[O-]", "outcome": "inactive"}, {"smiles": "Cc1ccccc1OP(=O)(Nc1ccccn1)Oc1ccccc1C", "activity, negative = inhibition": "inactive: -5.28%"}, {"smiles": "CN(C)C(=O)Oc1noc2ccccc12", "activity, negative = inhibition": "inactive: -7.74%"}, {"smiles": "O=c1c2cc([N+](=O)[O-])ccc2[nH]c2c([N+](=O)[O-])cc([N+](=O)[O-])cc12", "activity, negative = inhibition": "inactive: -18.5%"}, {"smiles": "CN(C(=O)Cc1ccc(Cl)c(Cl)c1)[C@@H]1CCCC[C@@H]1N1CCCC1", "activity, negative = inhibition": "inactive: -8.67%"}, {"smiles": "CCC(=O)N1C2C3N(C(=O)CC)C1C1N(C(=O)CC)C(C(N1C(=O)CC)N3C(=O)CC)N2C(=O)CC", "activity, negative = inhibition": "inactive: -3.02%"}, {"smiles": "COC(=O)c1cc2c(s1)N=C(c1ccccc1)N(C)P2(=O)N1CCOCC1", "note": "(centres undefined)", "activity, negative = inhibition": "inactive: -12.1%"}, {"smiles": "CC(=O)NC(SC(=S)N(CC(C)C)CC(C)C)C(Cl)(Cl)Cl", "note": "(centres undefined)", "activity, negative = inhibition": "inactive: -7.56%"}, {"smiles": "Cc1ccc(OP(=O)(Nc2ccccn2)Oc2ccc(C)cc2)cc1", "activity, negative = inhibition": "inactive: -4.52%"}, {"smiles": "Cc1cc([N+](=O)[O-])cc([N+](=O)[O-])c1O", "activity, negative = inhibition": "inactive: -4.11%"}, {"smiles": "CN(C(=O)Cc1ccccc1)[C@H]1CC[C@@]2(CCCO2)C[C@@H]1N1CCCC1", "activity, negative = inhibition": "inactive: -1.62%"}, {"smiles": "O=P(Nc1nc2ccccc2s1)(c1ccccc1)c1ccccc1", "activity, negative = inhibition": "inactive: 17.7%"}, {"smiles": "C[C@H]1OP(=O)(Oc2ccccc2)[C@H](O)[C@H](O)[C@H]1N=[N+]=[N-]", "note": "(some centres undefined)", "activity, negative = inhibition": "inactive: 5.26%"}, {"smiles": "O=P(Nc1ccccn1)(c1ccc(Br)cc1)c1ccc(Br)cc1", "outcome": "inactive"}, {"smiles": "O=C(OC1CN2CCC1CC2)c1cccc(Cl)c1", "note": "(centres undefined)", "activity, negative = inhibition": "inactive: -9.14%"}, {"smiles": "Nc1ccc([As](=O)(O)c2ccc([N+](=O)[O-])cc2)cc1", "outcome": "inactive"}, {"smiles": "C(Cc1nn[nH]n1)Cc1nn[nH]n1", "outcome": "inactive"}, {"smiles": "O=[As](O)(c1ccccc1)c1ccc(O)cc1", "activity, negative = inhibition": "inactive: -2.09%"}, {"smiles": "CC(=O)NC(SC(=S)N(C)C)C(Cl)(Cl)Cl", "note": "(centres undefined)", "activity, negative = inhibition": "inactive: -0.882%"}, {"smiles": "O=[N+]([O-])c1ncn(CCn2cnc([N+](=O)[O-])n2)n1", "activity, negative = inhibition": "inactive: -1.73%"}, {"smiles": "c1nnnn1CCn1cnnn1", "activity, negative = inhibition": "inactive: -10.8%"}, {"smiles": "CCC(C)(OOC(C)(C)C)OOC(C)(C)C", "activity, negative = inhibition": "inactive: -10.1%"}, {"smiles": "O=P(Nc1nccs1)(c1ccccc1)c1ccccc1", "activity, negative = inhibition": "inactive: 5.13%"}, {"smiles": "CC(C)C(=O)NC(Sc1ccccc1)C(Cl)(Cl)Cl", "note": "(centres undefined)", "activity, negative = inhibition": "inactive: -3.55%"}, {"smiles": "Cc1ccc(NP(=O)(Oc2ccccc2)Oc2ccccc2)nc1", "activity, negative = inhibition": "inactive: -8%"}, {"smiles": "O=[N+]([O-])c1cc([N+](=O)[O-])c(CCNc2ccccc2)c([N+](=O)[O-])c1", "activity, negative = inhibition": "inactive: -25.4%"}, {"smiles": "CCc1nc2c(n1)c1c(non1O)c1c2no[n+]1[O-]", "activity, negative = inhibition": "inactive: -6.42%"}, {"smiles": "CC(=O)N1C2C3N(C(C)=O)C1C1N(C(C)=O)C(C(N1C(C)=O)N3C(C)=O)N2C(C)=O", "activity, negative = inhibition": "inactive: 0.355%"}, {"smiles": "O=[N+]([O-])c1cccc2n[nH]nc12", "outcome": "inactive"}, {"smiles": "COc1ccc(C2=NCC(CBr)S2)cc1", "note": "(centres undefined)", "activity, negative = inhibition": "inactive: -3.38%"}, {"smiles": "CC1CCN(C(=O)Oc2c(Cl)cc(Cl)c3cccnc23)CC1", "activity, negative = inhibition": "inactive: -0.806%"}, {"smiles": "CC(=O)C1=CCCC2CCC1N2", "note": "(centres undefined)", "Potency": "inactive"}, {"smiles": "CC(C)=N/N=C(\\N)N[N+](=O)[O-]", "outcome": "inactive"}, {"smiles": "CN(C)C(=O)OCCc1n(C)cc[n+]1C", "activity, negative = inhibition": "inactive: 1.71%"}, {"smiles": "CCN(/C(=N/P(=O)(N1CCOCC1)N1CCOCC1)N1CCOCC1)c1ccc(OC)cc1", "activity, negative = inhibition": "inactive: -1.41%"}, {"smiles": "Nc1ccc([As](=O)(O)c2ccc(N)cc2)cc1", "outcome": "inactive"}, {"smiles": "O=C(Nc1cc([As](=O)(O)O)ccc1O)c1ccccc1", "activity, negative = inhibition": "inactive: -11.4%"}, {"smiles": "O=C(O)CNc1ccc([As](=O)(O)O)cc1", "activity, negative = inhibition": "inactive: -11.3%"}, {"smiles": "O=[N+]([O-])c1cccc(NC2=NCC(CBr)S2)c1", "note": "(centres undefined)", "activity, negative = inhibition": "inactive: -4.08%"}, {"smiles": "O=[N+]([O-])c1ncn(CCn2ncnc2[N+](=O)[O-])n1", "activity, negative = inhibition": "inactive: -8.17%"}, {"smiles": "CC(C)(C)C(=O)NC(Sc1ccncn1)C(Cl)(Cl)Cl", "note": "(centres undefined)", "activity, negative = inhibition": "inactive: -2.46%"}, {"smiles": "CCOP(=O)(Nc1ccccc1)OCC", "Potency": "inactive"}, {"smiles": "Cc1cc(SC(NC(=O)c2ccc(F)cc2)C(Cl)(Cl)Cl)ncn1", "note": "(centres undefined)", "activity, negative = inhibition": "inactive: -2.82%"}, {"smiles": "CN(C(=O)Cc1ccc(Cl)c(Cl)c1)[C@H]1CCCC[C@@H]1N1CCCC1", "Potency": "inactive"}, {"smiles": "Cc1ccc(NP(=O)(Oc2ccccc2F)Oc2ccccc2F)nc1", "activity, negative = inhibition": "inactive: -4.39%"}, {"smiles": "O=P(Nc1nc2ccc(Cl)cc2s1)(c1ccccc1)c1ccccc1", "activity, negative = inhibition": "inactive: -5.68%"}, {"smiles": "O=C(O)c1ccccc1[As](=O)(O)O", "outcome": "inactive"}, {"smiles": "CC(=O)Nc1ccc([As](=O)(O)O)cc1", "outcome": "inactive"}, {"smiles": "Nc1cccc2ccc([As](=O)(O)O)cc12", "activity, negative = inhibition": "inactive: -14.6%"}, {"smiles": "CCN(N=Nc1nonc1N)c1nonc1N", "activity, negative = inhibition": "inactive: -14.2%"}, {"smiles": "Clc1ccc(Cl)c(NC2=NCC(CBr)S2)c1", "note": "(centres undefined)", "activity, negative = inhibition": "inactive: -0.0456%"}, {"smiles": "CN1CCCC(OC(=O)C(c2ccccc2)c2ccccc2)C1", "note": "(centres undefined)", "activity, negative = inhibition": "inactive: -8.81%"}, {"smiles": "COc1ccccc1OP(=O)(Nc1ccc(C)cn1)Oc1ccccc1OC", "outcome": "inactive"}, {"smiles": "Cc1ccc(OP(=O)(Nc2nccs2)Oc2ccc(C)cc2)cc1", "activity, negative = inhibition": "inactive: -6.55%"}, {"smiles": "Cc1ccc(N/C(=N/P(=O)(N2CCOCC2)N2CCOCC2)N2CCOCC2)cc1", "outcome": "inactive"}, {"smiles": "NC(=O)c1cc([N+](=O)[O-])cc([N+](=O)[O-])c1N", "activity, negative = inhibition": "inactive: -0.335%"}, {"smiles": "Oc1ccccc1CNc1ccccn1", "activity, negative = inhibition": "inactive: 7.4%"}, {"smiles": "Cc1c2non([O-])c-2c(C)[n+](=O)[n+]1[O-]", "outcome": "inactive"}, {"smiles": "O=C(NC(Sc1ccncn1)C(Cl)(Cl)Cl)c1ccccc1", "note": "(centres undefined)", "activity, negative = inhibition": "inactive: -11.1%"}, {"smiles": "CC(C)CC(=O)NC(Sc1ccc(Cl)cc1)C(Cl)(Cl)Cl", "note": "(centres undefined)", "activity, negative = inhibition": "inactive: 1.06%"}, {"smiles": "Nc1cc(N)c2nonc2c1[N+](=O)[O-]", "activity, negative = inhibition": "inactive: 1.92%"}]}]}
